The values below are quoted from earlier work in patent US5935954A, “Compounds with improved multi-drug resistance activity” (Vertex Pharmaceuticals Incorporated, priority 1997, dated 1999).

The conditions of this series: patients; at concentrations needed for chemosensitization (CsA); cited from earlier work.

“11-methyl-leucine cyclosporin [11-met-leu CsA]”: the immunosuppression result is “do not exert an immunosuppressive effect”.
